Permeability data for macrocyclic peptides

RRCK values come from monolayers of low-efflux MDCK cells.
EPSA reports exposed polarity as measured by chromatography; lower is less polar.
Permeability is given as log10 of P in cm/s; higher (less negative) is more permeable.

structure (SMILES),RRCK (log10 cm/s),EPSA (Å2)
CC[C@@H]1NC(=O)[C@H](C(C)C)N(C)C(=O)[C@H](CC(C)C)N(C)C(=O)[C@H](CC(C)C)N(C)C(=O)[C@@H](C)NC(=O)[C@H](C)NC(=O)[C@H](CC(C)C)N(C)C(=O)[C@H](C(C)C)NC(=O)[C@H](CC(C)C)N(C)C(=O)CN(C)C1=O,-5.27,61

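Lipid, pH, incubation time, direction and concentration are not recorded in the data file. The list need not hold all peptides of the study. Entries at the database's floor value (log10 P of -10) are not listed.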

Values of Price et al. 2017, doi:10.1039/c7ob00096k, as listed in CycPeptMPDB.